# scFv variants of Ab-95 (light chain) against a SARS-CoV-2 spike peptide

The measurements come from Engelhart et al. 2022 (doi:10.1038/s41597-022-01779-4) through the FLAb antibody collection.

Target peptide (SARS-CoV-2 spike, HR2 region): PDVDLGDISGINAS

The variants keep the heavy chain, the linker and the frameworks of Ab-95 (scFv order VH, the linker GGGGSGGGGSGGGGS, VL).
VH: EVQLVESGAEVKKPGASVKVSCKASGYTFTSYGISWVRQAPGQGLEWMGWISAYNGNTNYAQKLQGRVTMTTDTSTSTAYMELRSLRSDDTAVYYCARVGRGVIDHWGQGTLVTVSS
VL: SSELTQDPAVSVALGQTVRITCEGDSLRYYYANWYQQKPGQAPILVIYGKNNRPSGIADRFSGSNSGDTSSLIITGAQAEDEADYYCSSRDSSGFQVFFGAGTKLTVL

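In library AAYL52, one, two or three CDR residues were substituted; doubles and triples were drawn at random. The scFvs were displayed on barcoded MATa yeast, the peptide on MATalpha yeast. The frequency of each diploid, read from paired DNA barcodes, reflects how well the two displayed proteins bind. Each replicate has its own calibration line, from reference interactions of the BCL2 family. Mating was done three times.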

Positions count from residue 1 of the parent VL; S26H puts H in place of S.
Every variant below is changed at L27 of the VL (sequential numbering).
Kd is apparent (estimated from mating counts) and averaged on the log scale over replicates with a signal. Smaller is tighter.
"nd" means that the variant was in the library but no mating with the target was seen in any replicate; the authors take this as a sign of poor binding, and no number exists.

The variant S26H/L27R/S92F showed nd (0 of 3 replicates). With L27N/G49M/F95C the result was nd (0 of 3 replicates). For L27Q/S88G, the assay gave 12 µM (3 of 3 replicates). The variant S26T/L27M/R28Y gave 2.0 µM (1 of 3 replicates). With L27E/S88P/D91L the result was 10 µM (1 of 3 replicates). With D25V/L27G/A32V the result was 150 nM (3 of 3 replicates). The variant L27T/Y29N/S55H showed 2.9 µM (3 of 3 replicates).

For L27K/N33E/S88H, the assay gave 4.1 µM (1 of 3 replicates). For L27R/Q96F/V97P, the assay gave 980 nM (3 of 3 replicates). For L27M/S93M/F95M, the assay gave 5.9 µM (2 of 3 replicates). With L27Q/R53D/P54V the result was 11 µM (2 of 3 replicates). The variant D25V/L27C/N51G gave 51 nM (3 of 3 replicates). The variant L27R/Y30N/R90Q showed 570 nM (3 of 3 replicates). The variant S26F/L27K/S55H showed 20 µM (1 of 3 replicates).

With L27S/S88F/F98Y the result was 2.7 µM (2 of 3 replicates). The variant L27V/N51W/S92D showed nd (0 of 3 replicates). The variant L27C/K50F/F98I showed 4.8 µM (3 of 3 replicates). The variant L27H/N51H/F98V showed nd (0 of 3 replicates). For D25L/L27V/A32K, the assay gave 2.1 µM (2 of 3 replicates). With L27G/A32D/N52A the result was nd (0 of 3 replicates). The variant L27M/Y29V/Q96D gave nd (0 of 3 replicates).

The variant L27K/R28K/S88C showed 3.7 µM (2 of 3 replicates). With E23N/G24H/L27K the result was 1.7 µM (3 of 3 replicates). The variant L27N/R90G/V97K showed 38 µM (2 of 3 replicates). The variant L27Y/A32P/F98Y showed 1.0 µM (3 of 3 replicates). With L27C/N52C/G94Q the result was nd (0 of 3 replicates). With D25N/L27A/F98A the result was 1.0 µM (3 of 3 replicates). The variant L27S/S89N/Q96A gave 17 µM (1 of 3 replicates).

With D25G/L27T the result was 170 nM (3 of 3 replicates). With L27H/Y29F/N52P the result was nd (0 of 3 replicates). With G24E/L27M/S55A the result was 7.0 µM (2 of 3 replicates). For L27V/S92M/Q96Y, the assay gave 49 µM (1 of 3 replicates). With L27R/N52K/S88A the result was 5.8 µM (2 of 3 replicates). For L27S/S55M/S89V, the assay gave 1.3 µM (3 of 3 replicates). For L27K/S93F/F98I, the assay gave nd (0 of 3 replicates).

With L27A/G49I/F98W the result was 6.3 µM (1 of 3 replicates). The variant L27F/Y31N/V97Q gave 17 µM (1 of 3 replicates). With L27M/S89E/F98V the result was 830 nM (1 of 3 replicates).

Extract of 5 entries:

| changes | apparent Kd | detected |
|---|---|---|
| L27N/G49M/F95C | nd | 0 of 3 |
| L27S/S55M/S89V | 1.3 µM | 3 of 3 |
| L27E/S88P/D91L | 10 µM | 1 of 3 |
| E23N/G24H/L27K | 1.7 µM | 3 of 3 |
| L27M/Y29V/Q96D | nd | 0 of 3 |

As a blank, each scFv also met three strains without target: over library AAYL52, 28% of these pairings were detected, typically at 8.2 µM and seldom below 800 nM.
In this assay the parent's reference entry averaged 200 nM; its copy inside this library read 180 nM.